Structures can show the parent of a compound that is named as a salt.
Assay: Study of the solubility of apomorphine hydrochloride in various solvents

For `CN1CCc2cccc3c2[C@H]1Cc1ccc(O)c(O)c1-3` [apomorphine hydrochloride], the “apomorphine hydrochloride solution able to be prepared” value (1,3-butanediol mixed with propylene carbonate at a weight ratio of 5:1) was 10 % by weight and the “apomorphine hydrochloride solution able to be prepared” value (concentrated glycerin (99%) mixed with propylene carbonate at a weight ratio of 5:1) was 10 % by weight.
